These are literature values, as cited in patent US20050101560A1, “Method of treating an individual with methyl 1-[N6-(3-iodobenzyl)-adenin-9-yl] beta-D-ibofuronamide” (CAN-FITE BIOPHARMA LTD., priority 2003, published 2005).

By UniProt entry, the sequences of proteins in these tests, tags left out.
UniProt P0DMS8, whole entry: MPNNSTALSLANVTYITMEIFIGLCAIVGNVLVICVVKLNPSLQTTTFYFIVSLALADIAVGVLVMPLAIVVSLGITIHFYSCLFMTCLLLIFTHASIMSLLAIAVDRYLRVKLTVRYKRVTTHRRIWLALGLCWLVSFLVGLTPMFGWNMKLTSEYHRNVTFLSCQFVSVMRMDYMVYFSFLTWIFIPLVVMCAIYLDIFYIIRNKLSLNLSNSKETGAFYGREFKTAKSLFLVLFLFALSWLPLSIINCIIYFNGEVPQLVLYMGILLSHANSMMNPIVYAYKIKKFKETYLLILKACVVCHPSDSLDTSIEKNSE

This series deals with A3 adenosine receptor (Homo sapiens, UniProt P0DMS8). The note with it: Jacobson et al., U.S. Pat. No. 5,773,423; cited from earlier work.

On to `CNC(=O)[C@H]1O[C@@H](n2cnc3c(NCc4cccc(I)c4)ncnc32)[C@H](O)[C@@H]1O` [IB-MECA, methyl 1-[N6-(3-iodobenzyl)-adenin-9-yl]-β-D-ibofuronamide], for which the receptor activity result was “selective A3 adenosine receptor agonist”.
